From ChEMBL document CHEMBL1212808, “The p110 delta structure: mechanisms for selectivity and potency of new PI(3)K inhibitors” (Nat Chem Biol, 2010) come the findings set out here.

In this assay the target is T1, Phosphatidylinositol 4,5-bisphosphate 3-kinase catalytic subunit delta isoform (Homo sapiens, UniProt O00329).
T1 sequence (O00329 whole entry): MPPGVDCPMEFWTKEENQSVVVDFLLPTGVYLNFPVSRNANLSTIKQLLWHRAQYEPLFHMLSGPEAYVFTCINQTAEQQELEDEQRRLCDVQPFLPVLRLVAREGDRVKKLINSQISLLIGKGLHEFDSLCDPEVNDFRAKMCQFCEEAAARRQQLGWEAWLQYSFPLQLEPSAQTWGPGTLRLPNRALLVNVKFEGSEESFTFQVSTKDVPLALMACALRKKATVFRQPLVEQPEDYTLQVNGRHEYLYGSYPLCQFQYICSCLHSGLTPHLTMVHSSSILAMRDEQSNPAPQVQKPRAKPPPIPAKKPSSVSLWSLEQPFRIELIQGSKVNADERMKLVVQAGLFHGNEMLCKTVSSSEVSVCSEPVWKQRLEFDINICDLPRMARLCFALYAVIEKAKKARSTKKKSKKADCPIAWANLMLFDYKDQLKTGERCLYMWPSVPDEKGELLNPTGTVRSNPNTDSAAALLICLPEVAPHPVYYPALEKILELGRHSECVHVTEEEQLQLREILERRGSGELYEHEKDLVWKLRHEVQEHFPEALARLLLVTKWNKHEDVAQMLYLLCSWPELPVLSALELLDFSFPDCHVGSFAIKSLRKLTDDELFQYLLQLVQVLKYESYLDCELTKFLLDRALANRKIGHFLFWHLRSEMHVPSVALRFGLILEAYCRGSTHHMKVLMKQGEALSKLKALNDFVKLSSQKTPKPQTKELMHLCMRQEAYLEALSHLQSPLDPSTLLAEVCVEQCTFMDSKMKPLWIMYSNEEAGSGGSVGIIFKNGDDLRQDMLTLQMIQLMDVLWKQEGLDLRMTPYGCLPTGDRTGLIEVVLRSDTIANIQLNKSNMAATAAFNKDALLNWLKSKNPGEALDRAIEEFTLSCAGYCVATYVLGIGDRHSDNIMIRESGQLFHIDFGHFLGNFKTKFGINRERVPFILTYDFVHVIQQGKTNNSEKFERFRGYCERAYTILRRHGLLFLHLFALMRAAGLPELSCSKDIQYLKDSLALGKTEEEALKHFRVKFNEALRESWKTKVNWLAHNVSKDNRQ
The assay is described as follows: Inhibition of p110delta.

`CC(=O)Nc1nc2ccc(-c3nn(Cc4cc5ccccc5nc4N4CCN(C)CC4)c4ncnc(N)c34)cc2s1` showed an IC50 of 1 nM.

`CC(C)n1nc(C#Cc2cccc(O)c2)c2c(N)ncnc21`: half-maximal inhibition (IC50) required 21 nM.
